From ChEMBL document CHEMBL2074255, “Human intestinal H+/peptide cotransporter. Cloning, functional expression, and chromosomal localization” (J Biol Chem, 1995) come the findings set out here.

For this assay, the target named is T1, Solute carrier family 15 member 1 (Homo sapiens) (UniProt P46059).
T1 sequence (whole entry): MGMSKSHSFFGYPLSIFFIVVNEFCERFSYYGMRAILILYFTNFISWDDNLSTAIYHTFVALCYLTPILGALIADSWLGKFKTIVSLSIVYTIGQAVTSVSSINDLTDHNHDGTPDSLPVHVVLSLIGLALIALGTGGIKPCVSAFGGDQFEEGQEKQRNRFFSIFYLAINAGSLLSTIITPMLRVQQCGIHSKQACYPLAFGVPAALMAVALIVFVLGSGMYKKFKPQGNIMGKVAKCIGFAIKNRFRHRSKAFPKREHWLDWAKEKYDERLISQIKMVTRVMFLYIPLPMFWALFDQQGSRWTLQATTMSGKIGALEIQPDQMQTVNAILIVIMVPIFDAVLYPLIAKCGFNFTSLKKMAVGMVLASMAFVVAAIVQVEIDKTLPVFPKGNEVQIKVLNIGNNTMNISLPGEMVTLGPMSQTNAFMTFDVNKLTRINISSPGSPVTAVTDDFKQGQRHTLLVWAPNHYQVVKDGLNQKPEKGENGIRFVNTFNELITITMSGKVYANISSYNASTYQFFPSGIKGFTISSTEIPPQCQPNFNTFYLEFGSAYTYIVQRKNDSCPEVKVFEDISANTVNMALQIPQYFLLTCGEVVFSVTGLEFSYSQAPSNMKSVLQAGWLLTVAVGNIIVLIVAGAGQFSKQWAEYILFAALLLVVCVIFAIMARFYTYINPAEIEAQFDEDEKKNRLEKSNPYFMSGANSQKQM
Nature of the assay: TP_TRANSPORTER: inhibition of Gly-Sar uptake (Gly-Sar: 20 uM, Ala-Pro-Gly: 10000 uM) in PEPT1-expressing HeLa cells. Further details: scale not given: the % may be the effect or the level left. The assay is classed as functional, cell-based.

Take `C[C@H](N)C(=O)N1CCC[C@H]1C(=O)NCC(=O)O`: the Activity is 9%.
